{
  "source": "paper PMC9134235",
  "about": "(ACS Omega, 2022)",
  "origin": "cited, not measured here",
  "system": "muscarinic receptors",
  "settings": "100 μM – 1 mM; cited from earlier work",
  "data": [
    {"smiles": "N=C(N)NC(=O)c1nc(Cl)c(N)nc1N", "note": "[Amiloride, amiloride]", "values": [
      {"measurement": "effect on Emax of acetylcholine", "value": "reduction of the Emax"}
    ]}
  ]
}
